The source of these data is patent US6534655B1, “Indeno[1,2-C]pyrazole derivatives for inhibiting tyrosine kinase activity” (BASF Aktiengesellschaft, priority 1997, dated 2003).

Amino acid sequences for entries named in this document (tags omitted). Residues count along the entry.
UniProt P35968, 789-1354 limits assumed: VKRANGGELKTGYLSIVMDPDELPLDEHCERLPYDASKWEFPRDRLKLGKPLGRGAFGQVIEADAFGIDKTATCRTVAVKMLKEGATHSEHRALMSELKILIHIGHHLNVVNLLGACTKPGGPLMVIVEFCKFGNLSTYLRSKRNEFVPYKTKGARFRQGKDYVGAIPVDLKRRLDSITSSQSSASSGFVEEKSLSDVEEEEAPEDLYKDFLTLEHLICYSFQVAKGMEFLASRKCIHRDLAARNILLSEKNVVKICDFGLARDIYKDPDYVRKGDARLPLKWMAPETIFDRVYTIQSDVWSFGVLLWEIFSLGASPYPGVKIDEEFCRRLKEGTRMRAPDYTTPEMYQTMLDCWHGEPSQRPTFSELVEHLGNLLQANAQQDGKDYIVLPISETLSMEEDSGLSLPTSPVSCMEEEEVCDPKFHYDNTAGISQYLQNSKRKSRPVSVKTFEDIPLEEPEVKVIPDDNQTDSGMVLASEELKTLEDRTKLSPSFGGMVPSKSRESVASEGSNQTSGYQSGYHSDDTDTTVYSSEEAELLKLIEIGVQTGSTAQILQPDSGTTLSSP

As usually defined, the pIC50 is the negative decadic logarithm of the IC50, by convention in mol/L.

pIC50: −log10 of the molar value.

The target in the assay is KDR tyrosine kinase (Homo sapiens, UniProt P35968). Nature of the assay: KDR in vitro ELISA (tyrosine kinase activity). The following applies: read-out: KDR ELISA IC50; ATP 5 μM, 5% DMSO, poly(Glu,Tyr) 4:1 substrate. From the text: The coding sequence for the KDR intra-cellular domain (aa789-1354) was generated through PCR using cDNAs isolated from HUVEC cells. A poly-His6 sequence was introduced at the N-terminus of this protein as well. This fragment was cloned into transfection vector pVL1393 at the Xba 1 and Not 1 site. Recombinant baculovirus (BV) was generated through co-transfection using the BaculoGold Transfection reagent (PharMingen). Recombinant BV was plaque purified and verified through Western analysis. For protein production, SF-9 cells were grown in SF-900-II medium at 2×10^6/ml, and were infected at 0.5 plaque forming units per cell (MOI). Cells were harvested at 48 hours post infection.
SF-9 cells expressing (His)6KDR(aa789-1354) were lysed by adding 50 ml of Triton X-100 lysis buffer (20 mM Tris, pH 8.0, 137 mM NaCl, 10% glycerol, 1% Triton X-100, 1 mM PMSF, 10 μg/ml aprotinin, 1 μg/ml leupeptin) to the cell pellet from 1 L of cell culture. The lysate was centrifuged at 19,000 rpm in a Sorval SS-34 rotor for 30 min at 4° C. […] Column fractions were analyzed using SDS-PAGE and an ELISA assay (below) which measures kinase activity. […]
Stop with 1M Phosphoric acid. Shake on plate reader.
Read OD immediately at 450 nm
Optimal incubation times and enzyme reaction conditions vary slightly with enzyme preparations and are determined empirically for each lot.
(An ELISA detects its analyte on a solid surface through an enzyme-linked reagent.)

Regarding `COc1ccc(-c2n[nH]c3c2C(=O)c2ccccc2-3)cc1`, the pIC50 was 5.82.
Next, `Cc1ccc(-c2n[nH]c3c2C(=O)c2ccccc2-3)cc1`: 5.59.
